Results reported in ChEMBL document CHEMBL3045755, “Specific and differential inhibition of very-long-chain fatty acid elongases from Arabidopsis thaliana by different herbicides” (Proc Natl Acad Sci U S A, 2004).
Calls of active or inactive are those of the source.

Tests used:
[1] = target: T1, 3-ketoacyl-CoA synthase 20 (Arabidopsis thaliana) (UniProt Q9FG87); experiment: Inhibition of Arbidopsis thaliana C-terminal His-tagged At5g43760 expressed in Saccharomyces cerevisiae INVSc1 at 100 uM after 18 to 20 hr by GC/MS analysis
T1 sequence (whole entry): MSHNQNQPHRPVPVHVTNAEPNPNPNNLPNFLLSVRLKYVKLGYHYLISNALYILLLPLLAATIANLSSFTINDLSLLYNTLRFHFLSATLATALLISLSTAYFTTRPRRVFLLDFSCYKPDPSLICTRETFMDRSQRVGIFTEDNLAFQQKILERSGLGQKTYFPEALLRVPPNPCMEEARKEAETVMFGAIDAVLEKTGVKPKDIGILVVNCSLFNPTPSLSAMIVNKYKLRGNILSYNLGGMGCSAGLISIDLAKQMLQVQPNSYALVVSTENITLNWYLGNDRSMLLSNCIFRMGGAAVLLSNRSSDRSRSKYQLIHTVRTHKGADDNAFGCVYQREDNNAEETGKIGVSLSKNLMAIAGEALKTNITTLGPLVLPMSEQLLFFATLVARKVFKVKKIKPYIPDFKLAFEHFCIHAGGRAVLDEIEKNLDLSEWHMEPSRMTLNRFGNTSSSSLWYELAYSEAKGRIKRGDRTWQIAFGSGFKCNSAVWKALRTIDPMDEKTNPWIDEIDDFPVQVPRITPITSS
In short: (§1)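 pYES2 galactose-inducible constructs in INVSc1, grown at 28°C in uracil-dropout minimal medium with 2% glucose. Log-phase cells were induced in 1% raffinose/2% galactose with herbicide at final 100 μM, in 50-ml culture for 18–20 h, then freeze-dried. FAMEs were made in 1 M methanolic HCl/5% dimethoxypropane at 80°C for 1 h under N2 and run on GC/MS. VLCFA profile was compared with herbicide-free elongase-expressing cells.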

Arabidopsis thaliana = experiment: Herbicidal activity against Arabidopsis thaliana assessed as apperance of fiddle head phenotype; assay type: functional, organism-based
[2] = target: T2, 3-ketoacyl-CoA synthase 18 (Arabidopsis thaliana) (UniProt Q38860); experiment: Inhibition of Arbidopsis thaliana C-terminal His-tagged FAE1 expressed in Saccharomyces cerevisiae INVSc1 at 100 uM after 18 to 20 hr by GC/MS analysis; in short: as §1
T2 sequence (whole entry): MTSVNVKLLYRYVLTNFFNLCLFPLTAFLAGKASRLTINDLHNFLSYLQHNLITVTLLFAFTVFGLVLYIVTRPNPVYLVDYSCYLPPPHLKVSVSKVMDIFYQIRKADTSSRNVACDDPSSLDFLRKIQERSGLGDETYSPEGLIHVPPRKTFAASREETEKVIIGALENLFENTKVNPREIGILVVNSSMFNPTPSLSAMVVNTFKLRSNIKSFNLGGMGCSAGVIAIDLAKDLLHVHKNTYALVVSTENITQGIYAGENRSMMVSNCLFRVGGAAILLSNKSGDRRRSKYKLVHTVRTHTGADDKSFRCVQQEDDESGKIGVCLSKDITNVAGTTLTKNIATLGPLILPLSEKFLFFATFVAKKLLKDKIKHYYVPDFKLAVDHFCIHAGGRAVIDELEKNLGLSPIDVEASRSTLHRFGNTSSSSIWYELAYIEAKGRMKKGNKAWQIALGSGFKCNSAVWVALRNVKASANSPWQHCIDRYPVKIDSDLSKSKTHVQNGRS

[3] = target: T3, 3-ketoacyl-CoA synthase 2 (Arabidopsis thaliana) (UniProt Q5XEP9); experiment: Inhibition of Arbidopsis thaliana C-terminal His-tagged At1g04220 expressed in Saccharomyces cerevisiae INVSc1 at 100 uM after 18 to 20 hr by GC/MS analysis; in short: as §1
T3 sequence (whole entry): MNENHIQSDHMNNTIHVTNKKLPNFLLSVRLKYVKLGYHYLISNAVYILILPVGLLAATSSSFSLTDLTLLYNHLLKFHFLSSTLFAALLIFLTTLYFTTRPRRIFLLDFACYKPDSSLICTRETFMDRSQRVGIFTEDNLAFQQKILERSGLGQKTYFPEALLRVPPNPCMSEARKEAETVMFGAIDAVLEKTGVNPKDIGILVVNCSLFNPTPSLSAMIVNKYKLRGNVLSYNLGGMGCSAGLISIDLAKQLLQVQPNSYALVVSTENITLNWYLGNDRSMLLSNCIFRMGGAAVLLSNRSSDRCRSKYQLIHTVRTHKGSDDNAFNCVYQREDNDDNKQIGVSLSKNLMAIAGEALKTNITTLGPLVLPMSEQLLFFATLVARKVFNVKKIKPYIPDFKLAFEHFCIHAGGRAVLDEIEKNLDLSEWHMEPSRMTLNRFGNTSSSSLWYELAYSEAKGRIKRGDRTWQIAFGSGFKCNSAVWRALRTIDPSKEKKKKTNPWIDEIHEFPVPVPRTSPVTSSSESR

[4] = target: T4, 3-ketoacyl-CoA synthase 17 (Arabidopsis thaliana) (UniProt O65677); experiment: Inhibition of Arbidopsis thaliana C-terminal His-tagged KCS2 expressed in Saccharomyces cerevisiae INVSc1 at 100 uM after 18 to 20 hr by GC/MS analysis; in short: as §1
T4 sequence (whole entry): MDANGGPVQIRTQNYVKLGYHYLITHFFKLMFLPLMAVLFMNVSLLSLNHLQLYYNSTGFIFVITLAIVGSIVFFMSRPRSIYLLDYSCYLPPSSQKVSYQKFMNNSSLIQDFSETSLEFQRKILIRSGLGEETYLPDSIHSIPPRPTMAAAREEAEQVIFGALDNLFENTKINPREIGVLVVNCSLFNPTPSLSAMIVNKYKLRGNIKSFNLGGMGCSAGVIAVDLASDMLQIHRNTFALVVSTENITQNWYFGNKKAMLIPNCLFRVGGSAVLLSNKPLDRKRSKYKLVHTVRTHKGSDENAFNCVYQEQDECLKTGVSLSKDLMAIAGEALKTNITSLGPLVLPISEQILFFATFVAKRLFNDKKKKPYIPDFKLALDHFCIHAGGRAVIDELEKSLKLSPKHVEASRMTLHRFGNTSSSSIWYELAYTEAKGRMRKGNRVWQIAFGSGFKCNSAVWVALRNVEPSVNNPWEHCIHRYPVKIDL

[5] = target: T5, 3-ketoacyl-CoA synthase 5 (Arabidopsis thaliana) (UniProt Q9C6L5); experiment: Inhibition of Arbidopsis thaliana C-terminal His-tagged CER60 expressed in Saccharomyces cerevisiae INVSc1 at 100 uM after 18 to 20 hr by GC/MS analysis; in short: as §1
T5 sequence (whole entry): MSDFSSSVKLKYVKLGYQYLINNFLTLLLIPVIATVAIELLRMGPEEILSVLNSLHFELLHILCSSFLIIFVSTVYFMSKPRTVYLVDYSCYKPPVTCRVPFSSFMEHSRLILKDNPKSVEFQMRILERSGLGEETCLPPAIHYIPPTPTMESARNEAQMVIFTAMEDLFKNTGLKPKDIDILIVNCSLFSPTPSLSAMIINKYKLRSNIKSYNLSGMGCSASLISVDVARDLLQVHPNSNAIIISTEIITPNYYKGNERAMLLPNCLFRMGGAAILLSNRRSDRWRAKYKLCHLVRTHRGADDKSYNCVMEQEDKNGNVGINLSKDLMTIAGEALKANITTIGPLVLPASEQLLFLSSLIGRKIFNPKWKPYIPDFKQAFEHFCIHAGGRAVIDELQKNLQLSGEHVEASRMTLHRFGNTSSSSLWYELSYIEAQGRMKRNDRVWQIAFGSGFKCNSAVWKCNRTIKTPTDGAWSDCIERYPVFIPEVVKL

[6] = target: T6, 3-ketoacyl-CoA synthase 1 (Arabidopsis thaliana) (UniProt Q9MAM3); experiment: Inhibition of Arbidopsis thaliana C-terminal His-tagged KCS1 expressed in Saccharomyces cerevisiae INVSc1 at 100 uM after 18 to 20 hr by GC/MS analysis; in short: as §1
T6 sequence (whole entry): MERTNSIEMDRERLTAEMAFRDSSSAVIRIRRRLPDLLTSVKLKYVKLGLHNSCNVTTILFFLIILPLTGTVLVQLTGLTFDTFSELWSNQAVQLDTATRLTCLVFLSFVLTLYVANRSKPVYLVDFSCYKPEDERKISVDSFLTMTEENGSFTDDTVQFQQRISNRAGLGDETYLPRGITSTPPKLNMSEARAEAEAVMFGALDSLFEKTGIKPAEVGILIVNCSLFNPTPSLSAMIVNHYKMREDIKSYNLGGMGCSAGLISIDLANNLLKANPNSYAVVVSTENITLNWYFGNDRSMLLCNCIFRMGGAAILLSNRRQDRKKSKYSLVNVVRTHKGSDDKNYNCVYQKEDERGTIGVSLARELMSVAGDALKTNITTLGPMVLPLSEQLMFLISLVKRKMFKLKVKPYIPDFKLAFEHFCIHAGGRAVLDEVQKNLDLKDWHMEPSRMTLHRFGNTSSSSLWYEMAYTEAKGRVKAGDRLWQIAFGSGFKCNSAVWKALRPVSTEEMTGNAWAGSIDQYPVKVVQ

CC(C)OP(=S)(OC(C)C)SCCNS(=O)(=O)c1ccccc1
inactive: inhibition [1] | Activity (Arabidopsis thaliana) | inhibition [2] | inhibition [3] | inhibition [4] | inhibition [5] | inhibition [6]
